According to US8497075B2, “Methods of identifying a modulator that inhibits the binding between Epstein-Barr virus induced receptor 2 and cholesterol derived ligands” (Novartis AG, priority 2008, dated 2013):

System: 26 GPCR binding assays, 9 GPCR functional assays, 40 kinase assays, ion channels, proteases, transporter and enzyme assays
Description: So far oxysterols have been noted to have various physiological activities namely regulate the expression of genes that participate in both sterol and fat metabolism, serve as substrates for the synthesis of bile acids, and are intermediates in the transfer of sterols from the periphery to the liver (Russell, D. W. (2000). Oxysterol biosynthetic enzymes. Biochim. Biophys. Acta 1529, 126-135). […] This included binding assays for 26 different GPCRs, functional assays of 9 different GPCRs, 40 kinase assays, as well as selected ion channels, proteases, transporter and enzyme assays.

**Q.** With `CC(CO)CCC[C@@H](C)[C@H]1CC[C@H]2[C@@H]3[C@H](O)C=C4C[C@@H](O)CC[C@]4(C)[C@H]3CC[C@]12C` (stereo partly shown) [7a,27DHC, cholest-5-ene-3b,7a,27-triol] as the compound, how does the “interaction in safety panel” value read?
**A.** In none of these assay did we see a significant interaction
